For assay [1], the target named is human κ opioid receptor over-expressed in CHO cells (Homo sapiens, UniProt P41145). In words: Inhibition of κ agonist-stimulated [35S]GTPγS binding. In kind it is biochemical. A general note: GTPγS resists hydrolysis and so accumulates on activated G proteins.
The target in assay [2] is human δ opioid receptor over-expressed in CHO cells (Homo sapiens, UniProt P41143). Kind of assay: Inhibition of DPDPE-stimulated [35S]GTPγS binding. The class given is biochemical.

The chains behind the UniProt entries cited, without tags or fusion partners. Where a name states a change or a piece, a line headed by the entry shows the natural chain unless it says otherwise.
UniProt P41145: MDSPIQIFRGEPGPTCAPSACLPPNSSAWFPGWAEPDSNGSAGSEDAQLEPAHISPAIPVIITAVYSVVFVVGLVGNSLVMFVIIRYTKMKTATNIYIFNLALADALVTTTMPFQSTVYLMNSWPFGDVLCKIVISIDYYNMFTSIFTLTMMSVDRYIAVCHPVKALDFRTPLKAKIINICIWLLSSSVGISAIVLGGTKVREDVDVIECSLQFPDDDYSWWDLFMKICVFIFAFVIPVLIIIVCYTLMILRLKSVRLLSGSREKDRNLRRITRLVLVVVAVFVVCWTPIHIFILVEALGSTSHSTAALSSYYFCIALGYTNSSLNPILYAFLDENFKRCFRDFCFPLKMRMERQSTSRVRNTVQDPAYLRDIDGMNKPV

Each structure is given as a SMILES string.

For the compound `C[C@@H]1CN(CCCc2ccccc2)[C@@H]2CCC[C@]1(c1cccc(O)c1)C2.Cl` [Compound 4, 3-[(1R,4S,5S)-4-Methyl-2-(3-phenylpropyl)-2-azabicyclo[3.3.1]non-5-yl]phenol], the Kb in assay [1] turned out to be 12.9 ± 2.5 nM; in assay [2], 32.7 ± 8.9 nM. Besides, in assay [1] (vs κ agonist-stimulated [35S]GTPγS binding), the “Antagonist κ, U50,488 Ke” value came to 12.9 nM. In addition, the “Antagonist δ, DPDPE Ke” value in assay [2] (vs DPDPE-stimulated [35S]GTPγS binding) is on record as 32.7 nM.

The record behind these values is publication PMC3893112 (Journal of medicinal chemistry, 2013).
